Literature values, collected in Sander's compilation of Henry's law constants (doi:10.1063/1.555654).

Assay: Henry solubility constant Hcp at 298.15 K (mol/(m3 Pa))
Conditions: reference: Mackay and Shiu (1981); cited value

Compound: CCl [chloromethane]
- Henry solubility constant Hcp: 0.0011
